This assay concerns AP2M1 MU. Format: binding, human.

On to “QVVSDIDYVPLKSATA A14G (QVVSDIDYVPLKSGTA)”, for which the “PSSM value of the substitution (DMS by phage display)” value (shortened to “PSSM value of the substitution”) came to 0.

As to “QVVSDIDYVPLKSATA A14H (QVVSDIDYVPLKSHTA)”, the “PSSM value of the substitution” value worked out at 0.0006386.

For “QVVSDIDYVPLKSATA A14I (QVVSDIDYVPLKSITA)”, the “PSSM value of the substitution” value came out at 0.4923.

For “QVVSDIDYVPLKSATA A14K (QVVSDIDYVPLKSKTA)”, the “PSSM value of the substitution” value is on record as 0.

With “QVVSDIDYVPLKSATA A14L (QVVSDIDYVPLKSLTA)”, the “PSSM value of the substitution” value was determined as 9.087e-5.

On to “QVVSDIDYVPLKSATA A14M (QVVSDIDYVPLKSMTA)”, for which the “PSSM value of the substitution” value came to 0.

Regarding “QVVSDIDYVPLKSATA A14N (QVVSDIDYVPLKSNTA)”, the “PSSM value of the substitution” value worked out at 0.3414.

Take “QVVSDIDYVPLKSATA A14P (QVVSDIDYVPLKSPTA)”: the “PSSM value of the substitution” value came to 0.0001771.

As for “QVVSDIDYVPLKSATA A14Q (QVVSDIDYVPLKSQTA)”, the “PSSM value of the substitution” value is given as 0.

“QVVSDIDYVPLKSATA A14R (QVVSDIDYVPLKSRTA)”: the “PSSM value of the substitution” value stood at 0.

On to “QVVSDIDYVPLKSATA A14S (QVVSDIDYVPLKSSTA)”, for which the “PSSM value of the substitution” value stood at 0.0002239.

As for “QVVSDIDYVPLKSATA A14T (QVVSDIDYVPLKSTTA)”, the “PSSM value of the substitution” value was 0.09674.

As to “QVVSDIDYVPLKSATA A14V (QVVSDIDYVPLKSVTA)”, the “PSSM value of the substitution” value worked out at 0.

For “QVVSDIDYVPLKSATA A14W (QVVSDIDYVPLKSWTA)”, the “PSSM value of the substitution” value came out at 0.03489.

As for “QVVSDIDYVPLKSATA A14Y (QVVSDIDYVPLKSYTA)”, the “PSSM value of the substitution” value was 0.

QVVSDIDYVPLKSATA A16A: the “PSSM value of the substitution” value is recorded as 0.002611.

For “QVVSDIDYVPLKSATA A16D (QVVSDIDYVPLKSATD)”, the “PSSM value of the substitution” value turned out to be 0.006462.

On to “QVVSDIDYVPLKSATA A16E (QVVSDIDYVPLKSATE)”, for which the “PSSM value of the substitution” value is 0.

On to “QVVSDIDYVPLKSATA A16F (QVVSDIDYVPLKSATF)”, for which the “PSSM value of the substitution” value came out at 0.02903.

For the sequence “QVVSDIDYVPLKSATA A16G (QVVSDIDYVPLKSATG)”, the “PSSM value of the substitution” value is 0.003233.

“QVVSDIDYVPLKSATA A16H (QVVSDIDYVPLKSATH)”: the “PSSM value of the substitution” value is reported as 0.0006219.

As to “QVVSDIDYVPLKSATA A16I (QVVSDIDYVPLKSATI)”, the “PSSM value of the substitution” value turned out to be 0.001288.

Regarding “QVVSDIDYVPLKSATA A16K (QVVSDIDYVPLKSATK)”, the “PSSM value of the substitution” value is given as 0.

With “QVVSDIDYVPLKSATA A16L (QVVSDIDYVPLKSATL)”, the “PSSM value of the substitution” value is 0.02555.

On to “QVVSDIDYVPLKSATA A16M (QVVSDIDYVPLKSATM)”, for which the “PSSM value of the substitution” value is 0.

In the case of “QVVSDIDYVPLKSATA A16N (QVVSDIDYVPLKSATN)”, the “PSSM value of the substitution” value stood at 0.0001031.

As to “QVVSDIDYVPLKSATA A16P (QVVSDIDYVPLKSATP)”, the “PSSM value of the substitution” value turned out to be 0.0003513.

Regarding “QVVSDIDYVPLKSATA A16Q (QVVSDIDYVPLKSATQ)”, the “PSSM value of the substitution” value amounted to 0.8881.

“QVVSDIDYVPLKSATA A16R (QVVSDIDYVPLKSATR)”: the “PSSM value of the substitution” value stood at 0.0005157.

For the sequence “QVVSDIDYVPLKSATA A16S (QVVSDIDYVPLKSATS)”, the “PSSM value of the substitution” value was 0.004622.

For “QVVSDIDYVPLKSATA A16T (QVVSDIDYVPLKSATT)”, the “PSSM value of the substitution” value is listed as 0.0002126.

For “QVVSDIDYVPLKSATA A16V (QVVSDIDYVPLKSATV)”, the “PSSM value of the substitution” value came to 0.03722.

As for “QVVSDIDYVPLKSATA A16W (QVVSDIDYVPLKSATW)”, the “PSSM value of the substitution” value was 0.

As for “QVVSDIDYVPLKSATA A16Y (QVVSDIDYVPLKSATY)”, the “PSSM value of the substitution” value is reported as 0.0001031.

Turning to QVVSDIDYVPLKSATA D5A (QVVSAIDYVPLKSATA), the “PSSM value of the substitution” value is listed as 0.03762.

With QVVSDIDYVPLKSATA D5D, the “PSSM value of the substitution” value was determined as 0.08019.

For QVVSDIDYVPLKSATA D5E (QVVSEIDYVPLKSATA), the “PSSM value of the substitution” value amounted to 0.02816.

As to QVVSDIDYVPLKSATA D5F (QVVSFIDYVPLKSATA), the “PSSM value of the substitution” value is on record as 0.03727.

As for QVVSDIDYVPLKSATA D5G (QVVSGIDYVPLKSATA), the “PSSM value of the substitution” value is 0.007768.

Consider QVVSDIDYVPLKSATA D5H (QVVSHIDYVPLKSATA), for which the “PSSM value of the substitution” value turned out to be 0.

QVVSDIDYVPLKSATA D5I (QVVSIIDYVPLKSATA): the “PSSM value of the substitution” value stood at 0.

With QVVSDIDYVPLKSATA D5K (QVVSKIDYVPLKSATA), the “PSSM value of the substitution” value amounted to 0.

As for QVVSDIDYVPLKSATA D5L (QVVSLIDYVPLKSATA), the “PSSM value of the substitution” value was 0.

With QVVSDIDYVPLKSATA D5M (QVVSMIDYVPLKSATA), the “PSSM value of the substitution” value is recorded as 0.

For the sequence QVVSDIDYVPLKSATA D5N (QVVSNIDYVPLKSATA), the “PSSM value of the substitution” value came out at 0.06497.

For QVVSDIDYVPLKSATA D5P (QVVSPIDYVPLKSATA), the “PSSM value of the substitution” value stood at 0.7415.

With QVVSDIDYVPLKSATA D5Q (QVVSQIDYVPLKSATA), the “PSSM value of the substitution” value is on record as 0.002506.

On to QVVSDIDYVPLKSATA D5R (QVVSRIDYVPLKSATA), for which the “PSSM value of the substitution” value turned out to be 0.

For QVVSDIDYVPLKSATA D5S (QVVSSIDYVPLKSATA), the “PSSM value of the substitution” value is 0.

As to QVVSDIDYVPLKSATA D5T (QVVSTIDYVPLKSATA), the “PSSM value of the substitution” value came out at 0.

As for QVVSDIDYVPLKSATA D5V (QVVSVIDYVPLKSATA), the “PSSM value of the substitution” value is 0.

On to QVVSDIDYVPLKSATA D5W (QVVSWIDYVPLKSATA), for which the “PSSM value of the substitution” value was 0.

Turning to QVVSDIDYVPLKSATA D5Y (QVVSYIDYVPLKSATA), the “PSSM value of the substitution” value amounted to 0.

Turning to QVVSDIDYVPLKSATA D7A (QVVSDIAYVPLKSATA), the “PSSM value of the substitution” value is on record as 0.001907.

For the sequence QVVSDIDYVPLKSATA D7D, the “PSSM value of the substitution” value is on record as 0.004403.

With QVVSDIDYVPLKSATA D7E (QVVSDIEYVPLKSATA), the “PSSM value of the substitution” value is reported as 0.8144.

In the case of QVVSDIDYVPLKSATA D7F (QVVSDIFYVPLKSATA), the “PSSM value of the substitution” value worked out at 0.

For the sequence QVVSDIDYVPLKSATA D7G (QVVSDIGYVPLKSATA), the “PSSM value of the substitution” value was 6.7986e-5.

On to QVVSDIDYVPLKSATA D7H (QVVSDIHYVPLKSATA), for which the “PSSM value of the substitution” value is 0.01743.

As for QVVSDIDYVPLKSATA D7I (QVVSDIIYVPLKSATA), the “PSSM value of the substitution” value is reported as 0.

QVVSDIDYVPLKSATA D7K (QVVSDIKYVPLKSATA): the “PSSM value of the substitution” value is given as 6.7986e-5.

Consider QVVSDIDYVPLKSATA D7L (QVVSDILYVPLKSATA), for which the “PSSM value of the substitution” value worked out at 0.

As to QVVSDIDYVPLKSATA D7M (QVVSDIMYVPLKSATA), the “PSSM value of the substitution” value worked out at 0.0006322.

As for QVVSDIDYVPLKSATA D7N (QVVSDINYVPLKSATA), the “PSSM value of the substitution” value is reported as 0.

Take QVVSDIDYVPLKSATA D7P (QVVSDIPYVPLKSATA): the “PSSM value of the substitution” value is reported as 0.0014.

As for QVVSDIDYVPLKSATA D7Q (QVVSDIQYVPLKSATA), the “PSSM value of the substitution” value came out at 0.

Regarding QVVSDIDYVPLKSATA D7R (QVVSDIRYVPLKSATA), the “PSSM value of the substitution” value is on record as 0.000174.

With QVVSDIDYVPLKSATA D7S (QVVSDISYVPLKSATA), the “PSSM value of the substitution” value is on record as 0.001097.

For the sequence QVVSDIDYVPLKSATA D7T (QVVSDITYVPLKSATA), the “PSSM value of the substitution” value is on record as 0.1574.

For the sequence QVVSDIDYVPLKSATA D7V (QVVSDIVYVPLKSATA), the “PSSM value of the substitution” value came to 0.0005325.

Take QVVSDIDYVPLKSATA D7W (QVVSDIWYVPLKSATA): the “PSSM value of the substitution” value was 0.0003554.

Turning to QVVSDIDYVPLKSATA D7Y (QVVSDIYYVPLKSATA), the “PSSM value of the substitution” value is recorded as 0.000174.

Regarding QVVSDIDYVPLKSATA I6A (QVVSDADYVPLKSATA), the “PSSM value of the substitution” value was 4.874e-5.

As for QVVSDIDYVPLKSATA I6D (QVVSDDDYVPLKSATA), the “PSSM value of the substitution” value stood at 0.0001203.

For the sequence QVVSDIDYVPLKSATA I6E (QVVSDEDYVPLKSATA), the “PSSM value of the substitution” value is reported as 0.

Regarding QVVSDIDYVPLKSATA I6F (QVVSDFDYVPLKSATA), the “PSSM value of the substitution” value amounted to 0.000182.

For QVVSDIDYVPLKSATA I6G (QVVSDGDYVPLKSATA), the “PSSM value of the substitution” value is reported as 0.

Turning to QVVSDIDYVPLKSATA I6H (QVVSDHDYVPLKSATA), the “PSSM value of the substitution” value came to 0.001687.

As to QVVSDIDYVPLKSATA I6I, the “PSSM value of the substitution” value worked out at 0.001559.

On to QVVSDIDYVPLKSATA I6K (QVVSDKDYVPLKSATA), for which the “PSSM value of the substitution” value was determined as 0.

As to QVVSDIDYVPLKSATA I6L (QVVSDLDYVPLKSATA), the “PSSM value of the substitution” value stood at 0.

For QVVSDIDYVPLKSATA I6M (QVVSDMDYVPLKSATA), the “PSSM value of the substitution” value stood at 0.

With QVVSDIDYVPLKSATA I6N (QVVSDNDYVPLKSATA), the “PSSM value of the substitution” value stood at 7.156e-5.

For QVVSDIDYVPLKSATA I6P (QVVSDPDYVPLKSATA), the “PSSM value of the substitution” value was 4.874e-5.

Regarding QVVSDIDYVPLKSATA I6Q (QVVSDQDYVPLKSATA), the “PSSM value of the substitution” value is reported as 0.

Values taken from paper PMC12102759 (Protein Science : A Publication of the Protein Society, 2025).
